{"source": "ChEMBL document CHEMBL5034016", "about": "(J Med Chem, 2021)", "experiment": "Selectivity index, ratio of CC50 for human RD cells to EC50 for antiviral activity against Enterovirus A71 infected in human RD cells", "format": "toxicity, cell-based", "conditions": "read-out: Ratio CC50/EC50"}
{"smiles": "O=C(CCC(CCC(=O)N[C@H](Cc1c[nH]c2ccccc12)C(=O)O)(CCC(=O)N[C@H](Cc1c[nH]c2ccccc12)C(=O)O)NC(=O)CCOCC(COCCC(=O)NC(CCC(=O)N[C@H](Cc1c[nH]c2ccccc12)C(=O)O)(CCC(=O)N[C@H](Cc1c[nH]c2ccccc12)C(=O)O)CCC(=O)N[C@H](Cc1c[nH]c2ccccc12)C(=O)O)(COCCC(=O)NC(CCC(=O)N[C@H](Cc1c[nH]c2ccccc12)C(=O)O)(CCC(=O)N[C@H](Cc1c[nH]c2ccccc12)C(=O)O)CCC(=O)N[C@H](Cc1c[nH]c2ccccc12)C(=O)O)COCCC(=O)NC(CCC(=O)N[C@H](Cc1c[nH]c2ccccc12)C(=O)O)(CCC(=O)N[C@H](Cc1c[nH]c2ccccc12)C(=O)O)CCC(=O)N[C@H](Cc1c[nH]c2ccccc12)C(=O)O)N[C@H](Cc1c[nH]c2ccccc12)C(=O)O", "values": [{"measurement": "selectivity ratio", "value": 83}]}
